Article PMC10721916

Molecular target: filamentous (F)-actin (rabbit) (UniProt P68135)
Experiment: co-sedimentation; high-speed F-actin co-sedimentation: 10 uM Vt and 20 uM F-actin in actin polymerization buffer (10 mM Tris, 200 mM KCl, 10 mM imidazole, 2.5 mM MgCl2, 1 mM EGTA, 2 mM DTT, pH 7.5), 1 h at room temperature, 185,000x g for 60 min; fraction of Vt in the pellet by SDS-PAGE …

“vinculin tail domain (Vt) E1015A (domain or fragment)” gave a reduction of F-actin binding against WT Vt of 2%.
In the case of “vinculin tail domain (Vt) E1021A (domain or fragment)”, the reduction of F-actin binding against WT Vt was 2%.
“vinculin tail domain (Vt) I997A (domain or fragment)” gave a reduction of F-actin binding against WT Vt of 20%.
